Experimental data: ChEMBL document CHEMBL4411296, “Design and development of Isatin-triazole hydrazones as potential inhibitors of microtubule affinity-regulating kinase 4 for the therapeutic management of cell proliferation and metastasis” (Eur J Med Chem, 2019)

How the values were obtained:
Type in all cases: functional, cell-based
MCF7 = assay: Antiproliferative activity against human MCF7 cells assessed as cell viability after 48 hrs by MTT assay
MDA-MB-435S = assay: Antiproliferative activity against human MDA-MB-435S cells assessed as cell viability after 48 hrs by MTT assay
HepG2 = assay: Antiproliferative activity against human HepG2 cells assessed as cell viability after 48 hrs by MTT assay

Measured: Activity

COc1ccc(Cn2cc(C(=O)N/N=C3/C(=O)Nc4c(C)cccc43)nn2)cc1
active: MCF7 = Dose-dependent effect | MDA-MB-435S Dose-dependent effect | HepG2 = Dose-dependent effect
